Where two headings read alike, the source gives them in different places.
Target: Nanoluciferase-BRD9 fusion protein (Homo sapiens (Human), UniProt Q9H8M2)
Test: SYO1 BRD9 NanoLuc degradation assay
Settings: read-out: SYO1 BRD9-NanoLuc degradation IC50, SYO-1 cells expressing 3×FLAG-NLuc-BRD9, 6 hours

Sequences of proteins named here, by UniProt entry; tags and fusion partners are left off.
UniProt Q9H8M2, whole entry: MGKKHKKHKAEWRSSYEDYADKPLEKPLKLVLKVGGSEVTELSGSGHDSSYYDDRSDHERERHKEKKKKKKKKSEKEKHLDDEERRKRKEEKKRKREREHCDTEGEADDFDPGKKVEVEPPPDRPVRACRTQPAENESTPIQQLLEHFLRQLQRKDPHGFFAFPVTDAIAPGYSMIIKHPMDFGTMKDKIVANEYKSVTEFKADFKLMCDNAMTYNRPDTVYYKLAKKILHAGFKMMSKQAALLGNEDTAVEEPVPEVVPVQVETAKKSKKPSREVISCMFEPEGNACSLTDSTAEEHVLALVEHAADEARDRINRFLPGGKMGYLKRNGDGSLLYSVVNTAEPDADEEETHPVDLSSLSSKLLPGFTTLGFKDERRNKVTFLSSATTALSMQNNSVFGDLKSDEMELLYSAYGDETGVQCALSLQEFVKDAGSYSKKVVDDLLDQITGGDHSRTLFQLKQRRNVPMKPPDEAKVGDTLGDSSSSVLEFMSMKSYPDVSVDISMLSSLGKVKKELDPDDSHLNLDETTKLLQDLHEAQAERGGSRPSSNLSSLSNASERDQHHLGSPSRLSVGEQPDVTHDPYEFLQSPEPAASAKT

Row | IC50 (Table 5C) | IC50 (Table 5B) | SMILES
1 | < 10 nM |  | COc1cc(-c2cc(C)c(=O)n(C)c2)cc(OC)c1CN1CC(F)(C#Cc2ccc3c(c2)C(=O)N(C2CCC(=O)NC2=O)C3)C1 (stereo not shown)
2 |  | 100 to 1000 nM | COc1cc(-c2cn(C)c(=O)c3cnccc23)cc(OC)c1CN(C)CCOCCn1cc(COC2CCN(c3ccc4c(c3)C(=O)N(C3CCC(=O)NC3=O)C4=O)CC2)nn1 (stereo not shown)
3 |  | < 10 nM | COc1cc(-c2cn(C)c(=O)c3cnccc23)cc(OC)c1CN(C)CCn1cc(COc2ccc3c(c2)C(=O)N(C2CCC(=O)NC2=O)C3=O)nn1 (stereo not shown)
4 | < 10 nM |  | COc1cc(-c2cn(C)c(=O)c3[nH]ccc23)cc(OC)c1CN1CCC2(CC1)CN(c1ccc3c(c1)C(=O)N(C1CCC(=O)NC1=O)C3)C2 (stereo not shown)

— patent US11414416B1, “Compounds and uses thereof” (Foghorn Therapeutics Inc., priority 2019, dated 2022)
